Measured values reported in publication PMC5715260.

Columns and labels:
Test in all cases: native gel or EMSA; purified TTR (0.5 uM) incubated with human RBP (0-4 uM) at 4 °C for 2 h; free and RBP-bound TTR separated by native PAGE (10%), western blot with anti-TTR and ECL; Kd by Scatchard analysis assuming a 1:2 TTR:RBP complex; low TTR/RBP molar ratio
[1] = biological target: pigC/crocTTR (Crocodylus porosus TTR with the C-terminal sequence changed to that of S. scrofa TTR) (Crocodylus porosus | Sus scrofa) (UniProt O55245)
[2] = biological target: pigC/huTTR (human TTR with the C-terminal sequence changed to that of Sus scrofa TTR) (human | Sus scrofa)
[3] = biological target: xenoN/pigC/huTTR (human TTR with the N-terminal and C-terminal sequences changed to those of Xenopus laevis and S. scrofa, respectively) (Xenopus laevis | human | Sus scrofa) (UniProt B7ZS96)

Kd [1]: 310 nM
Kd [2]: 3200 nM
Kd [3]: 1530 nM
Substance: Human retinol binding protein (RBP) (from UniProt P02753 19-201) (natural protein)
